Data set [1] deals with MDA-MB-468 cells. As to conditions: 5 μg/ml; compared to Enhertu.
Data set [2] has as its system NCI-N87 cells. Kind of data set: NCI-N87 xenograft in CB17-Scid mice. Type of data set: in vivo. The procedure: All animal experiments were conducted in accordance with German animal welfare law and approved by local authorities. […] Treatment was initiated when tumours reached a mean tumour volume of 0.1-0.15 cm^3. […] Tumour volumes, body weights and general health conditions were recorded throughout the whole study.

Data set [3] concerns Her2-negative cells Karpas-299 and DU-145. The following applies: compared to Enhertu.
For data set [4], the system named is cultured cells of healthy human tissue. The following applies: all tested tissue types; compared to Enhertu.
Data set [5] concerns SKOV-3 cells. Kind of data set: pHrodo-based internalization, Her2-positive cells. It is filed as cell-based. As to conditions: 5 μg/ml, 1 h, 5 h, 24 h.
In data set [6] the test system is co-culture of SKBR-3 cells and MDA-MB-468 cells. Briefly: Co-culture-based bystander assay by FACS. Type of data set: cell-based. The following applies: 5:1 co-culture, 5 days; compared to Enhertu. How it is done:
After 5 days incubation time, co-cultures were stained by αHer2-FITC (BioLegend) and Fixable Aqua Dead Cell Stain Kit (Thermo Fisher Scientific). As a readout for the bystander effect, the percentage of dead Her2-positive and -negative cells was determined by flow cytometry.
(Flow cytometry measures light scatter and fluorescence of single cells or particles in a stream.)

Data set [7] has as its system SKBR-3, N87, HCC-1569, HCC-78, OE-19, SK-GT-2 and SKOV-3. The following applies: compared to Enhertu; in particular cell lines not highly overexpressing Her2.
Data set [8] has as its system Her2-positive target cells SKBR-3, SKOV-3 and N87. Kind of data set: Calcein release-based ADCC assay. The following applies: NK cells, effector-to-target 3:1; compared to Enhertu. Type of data set: cell-based. The procedure:
For the Calcein release-based antibody-dependent cellular cytotoxicity (ADCC) assay, frozen primary healthy donor-derived natural killer (NK) cells, isolated from peripheral blood mononuclear cells (PBMCS) by negative selection, were purchased as effector cells (Lonza). Her2-positive target cells were stained with 16 μM Calcein AM (Thermo Fisher Scientific). […] Cells permeabilized with 2.5% Triton X (Sigma-Aldrich) served as positive control. Supernatants were transferred to a flat black non-binding 96-well plate (Greiner Bio-One) and fluorescence was measured at 485/535 nM via the Infinite M1000 Pro reader (Tecan).
The percent specific killing was calculated by dividing the Calcein released by antibody-mediated killing minus background Calcein release (NKs+targets) from Calcein released by Triton X-permeabilized cells (maximum killing) minus background Calcein release (targets only). We determined either maximum ADCC/specific killing at 15 μg/ml or generated a concentration-dependent killing curve that was analyzed by a non-linear regression using a one-site specific binding model.

“Trastuzumab-P5(PEG24)-VC-PAB-Exatecan DAR8: "ADC Trastuzumab-P5(PEG24)-VC-PAB-Exatecan having a drug to antibody ratio of 8 (denoted as "DAR8")"”: in data set [1], the “undesired internalization into target negative cells” value is reported as “lower”. For the same substance, in data set [2] (0.5 mg/kg once, initial 7 days), the tumor response entry is recorded as “tumor regression”. Moreover, in data set [2] (all treatment groups (0.25, 0.5, 1, 2 mg/kg once), initial period of 7 days), the “tumor shrinkage compared to Enhertu” value is recorded as “greater tumor shrinkage”. Further, the “in vivo efficacy, expected outcome” value in data set [2] (study currently ongoing) is recorded as “same/comparable outcome”. The bystander effect entry in data set [3] is “Better bystander effect”; in data set [6], “Slightly better bystander effect”. For the same substance, in data set [4], the off-target toxicity entry is “less pronounced”. The “internalization into targeted Her2 cells” value in data set [5] was “similar”. Further, the in vitro efficacy result in data set [7] was “Better in vitro efficacy”. The “ADCC-effect (percent specific killing)” value in data set [8] is “better ADCC-effect”.
